Measurements: paper PMC7730438, “Generation of KS-58 as the first K-Ras(G12D)-inhibitory peptide presenting anti-cancer activity in vivo” (Scientific Reports, 2020)

Chains of the proteins cited; added tags and fusions are not shown. Residues count along the entry.
UniProt P01116, 1-188 isoform P01116-2: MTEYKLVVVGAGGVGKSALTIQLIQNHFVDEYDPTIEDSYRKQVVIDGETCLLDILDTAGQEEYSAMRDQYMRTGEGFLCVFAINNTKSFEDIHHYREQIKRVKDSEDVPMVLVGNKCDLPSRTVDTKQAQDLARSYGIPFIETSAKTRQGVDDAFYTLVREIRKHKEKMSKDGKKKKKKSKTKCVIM

Columns and labels:
N-Ras(WT) = target: T1, N-Ras(WT) (Homo sapiens, UniProt P01111); assay: Cell-free ELISA binding of biotin-labeled peptides
T1 construct: purchased Abcam ab268821
Experimental: (§1) Recombinant human K-Ras(G12D) (ab268712), K-Ras(G12V) (ab268713), K-Ras(G12C) (ab268711), K-Ras(G13D) (ab271580), K-Ras(Q61H) (ab96817), K-Ras(WT) (ab156968), N-Ras(WT) (ab268821), and H-Ras(WT) (ab93949) proteins were purchased from Abcam (Cambridge, UK). Ras protein was directly coated to wells of Nunc MaxiSorp microplate in PBS containing 0.01 mM GDP and 10 mM MgCl2 overnight at 4 °C. The wells were blocked in PBS containing 0.1% bovine serum albumin (BSA) for 0.5 h at 25 °C.
(§2) For binding assays of biotin-labeled peptides, Ras protein (25 μg/mL) was coated to wells of Nunc MaxiSorp 96-well clear plate (439,454) as described above. After washing the wells three times using PBS containing 0.1% Tween20 (PBST), biotin-labeled peptides in PBS containing 0.025% BSA, 0.01 mM GDP, and 10 mM MgCl2 were added to the wells. After 0.5 h incubation at 25 °C, the wells were washed with PBST three times. Bound biotin-labeled peptides were detected using horseradish peroxidase (HRP)-conjugated streptavidin (SA) (ab7403, Abcam) and 1-Step Ultra TMB-ELISA Substrate Solution (34028, Thermo Fisher Scientific). The amounts of HRP in the wells were measured by absorbance to 450 nm.

K-Ras(WT) = target: T2, K-Ras(WT) (Homo sapiens, UniProt P01116); assay: Cell-free ELISA binding of biotin-labeled peptides
T2 construct: purchased Abcam ab156968
Experimental: as §1, §2

CCCCCCC[C@@H]1NC(=O)[C@@H]2CSCCCSC[C@@H](NC(=O)[C@H](Cc3c[nH]c4ccccc34)NC(=O)[C@H](CCCCNC(=O)CCCCCNC(=O)CCCC[C@@H]3SC[C@@H]4NC(=O)N[C@@H]43)NC(=O)[C@H](CC(=O)O)NC(=O)[C@H](Cc3ccc(F)cc3)NC(=O)[C@H](CO)NC1=O)C(=O)NCCC(=O)N1CCC[C@H]1C(=O)N[C@@H](CCCC)C(=O)N2 [Biotin-KS-58, c[βAla-Pro-Nle-c(Cys-Anon-Ser-4fF-Asp-Lys(εN-biotin)-Trp-^DCys)]]
EC50 (N-Ras(WT)): 0.06 µM | EC50 (K-Ras(WT)): 0.08 µM
